Drawing on article PMC5510615, this text covers Kd and selectivity, Kd (monomer) divided by Kd (PFF) for 1 substance.

Like-named read-outs stand apart in the source and are kept apart here.

Common to all, as to test: cell-surface binding assay with streptavidin-alkaline phosphatase staining
Test [1] concerns the target LAG3 overexpressed on SH-SY5Y cells (not stated (human or mouse cDNA cloned)) (UniProt Q61790).
The target is the same in test [2]. The source holds these as a separate data set.
The target of test [3] is endogenous LAG3 on mouse cortical neurons (mouse (endogenous in cortical neurons)) (UniProt Q61790).
Test [4] addresses neurexin 1β expressed on SH-SY5Y cells (UniProt P58400).

Consider “mouse α-synuclein-biotin pre-formed fibrils (from UniProt O55042 1-140) (natural protein)”, for which the Kd in test [1] came out at 71 nM; in test [2] it was 77 nM; in test [3], 103 nM. Moreover, the selectivity, Kd (monomer) divided by Kd (PFF) was 38 in test [2] and 11 in test [4].
